Data on one molecule can be found in EP1277738B1, “CONDENSED HETEROARYL DERIVATIVES” (Astellas Pharma Inc., priority 2000, dated 2001).

As a reminder, the IC50 is the concentration that gives 50% inhibition.

This experiment has as its system A375 cells. The experiment in a line: Melanoma cell growth inhibition (Alamar Blue). The class given is cell-based. The conditions noted are these: Homo sapiens, A-375, 46 h. The protocol:
A375 cells from a melanoma cell line were cultured in DMEM medium (GIBCO) supplemented with 10% fetal bovine serum. A375 cells at 10,000 cells/100µl were added to a 96 well plate which contained 1µl/well of the test compounds (final concentration of 0.001 - 30µM). After incubation for over 46 hours, Alamar Blue reagent was added to the medium (10µl/well).
A general note: Alamar Blue is a resazurin reagent that responds to reducing activity.

With `Nc1ccc(C(=O)Nc2cccc(-c3nc(N4CCOCC4)c4oc5ncccc5c4n3)c2)cn1` [Co 17, 6-amino-3'-.(4-morpholinopyrido[3',2':4,5]furo[3,2-d]pyrimidin-2-yl)nicotinanilide], the IC50 was 0.33 to 4.26 µM.
